Experimental data reported in US4146721A, “Pyrazol-4-acetic acid compounds” (priority 1970, dated 1979).

Assays:
[1] = system: Carrageenin edema of the rear paw of the rat; test: Carrageenin edema of the rear paw (antiphlogistic effect); type: in vivo; details: Phenylbutazon = 1.0, oral
[2] = system: ultraviolet erythema of the skin on the back of the guinea pig; test: Ultraviolet erythema of the skin on the back (antiphlogistic effect); type: in vivo; details: Phenylbutazon = 1.0, oral
[3] = in vivo; details: mouse, ip

O=C(O)Cc1cn(-c2ccccc2)nc1-c1ccc(Cl)cc1 [D, 1-phenyl-3-(p-chlorophenyl)-pyrazol-4-acetic acid]
Retardation of the Carrageenin Edema, Relative Effect [1]: 12.0 | Retardation of the UV-Erythema, Relative Effect [2]: 5.3 | LD50 at 72 h [3]: 340 mg/kg
